This test concerns the target T1, Cholesteryl ester transfer protein (Homo sapiens, UniProt P11597).
T1 sequence (P11597 whole entry): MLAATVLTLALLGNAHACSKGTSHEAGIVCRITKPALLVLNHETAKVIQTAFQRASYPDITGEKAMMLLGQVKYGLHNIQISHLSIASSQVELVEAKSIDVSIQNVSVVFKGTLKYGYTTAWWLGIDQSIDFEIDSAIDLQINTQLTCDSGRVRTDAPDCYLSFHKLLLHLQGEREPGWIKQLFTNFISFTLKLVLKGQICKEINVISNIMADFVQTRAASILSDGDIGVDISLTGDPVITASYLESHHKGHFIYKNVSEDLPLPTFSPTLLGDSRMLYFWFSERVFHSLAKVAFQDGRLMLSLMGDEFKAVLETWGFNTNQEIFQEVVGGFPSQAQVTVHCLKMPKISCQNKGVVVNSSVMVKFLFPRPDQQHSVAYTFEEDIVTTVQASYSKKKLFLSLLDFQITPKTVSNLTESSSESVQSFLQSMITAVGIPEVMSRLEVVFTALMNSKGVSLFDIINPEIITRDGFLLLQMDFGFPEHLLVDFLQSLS
The test can be described thus: Tested for inhibiting CETP-mediated transfer of [3H]-CE from HDL to LDL in vitro under buffered assay conditions in human serum. In kind it is cell-free.

Bounds are passed on as bounds.

Take `OC(CN(Cc1cccc(OC(F)(F)F)c1)c1cccc(F)c1)C(F)(F)F` (stereo unspecified): the concentration for half-maximal inhibition (IC50) (commonly the point on the concentration scale where inhibition reaches its midpoint) was greater than 200 µM.
